The test system of the assay is PTTG1−/− HCT116 tumors. As to the kind of experiment: Subcutaneous tumor implant in nude mice. The following applies: 50 mg/kg i.p. daily, measured at day 17.

Molecules are shown by their SMILES.

In turn, `O=C(CCCCCCC(=O)Nc1ccccc1)NO` [SAHA, suberoylanilide hydroxamic acid] gave a tumor volume of 672±334 mm^3.

The values above are taken from patent US8216782B2, “PTTG1 as a biomarker for cancer treatment” (Cedars-Sinai Medical Center, priority 2008, dated 2012).
